## scFv variants of Ab-14 (light chain) against a SARS-CoV-2 spike peptide

From the AlphaSeq antibody data of Engelhart et al. 2022 (doi:10.1038/s41597-022-01779-4), copy in the FLAb collection.

The target is the same throughout: PDVDLGDISGINAS, from the HR2 region of SARS-CoV-2 spike.

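The parent was found by panning a naive human phage display library on the peptide. Library AAYL50 holds single substitutions and randomly drawn double and triple substitutions in the CDRs. The assay is AlphaSeq: two haploid yeast populations carry antibody and antigen on their surface. After mating in shaken culture at 30 °C for 16 h, diploids were selected and their barcode pairs sequenced. A regression on co-assayed BCL2-family reference pairs converts the normalised counts of each replicate to an apparent Kd. There are three technical replicates.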

Ab-14 is the parent antibody, in scFv form: VH, then a 15-residue (Gly4Ser)3 linker, then VL. The heavy chain is unchanged in all variants.
VH: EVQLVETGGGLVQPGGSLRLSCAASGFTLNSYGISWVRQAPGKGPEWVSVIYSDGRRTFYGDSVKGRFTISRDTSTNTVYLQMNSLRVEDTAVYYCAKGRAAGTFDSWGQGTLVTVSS
VL: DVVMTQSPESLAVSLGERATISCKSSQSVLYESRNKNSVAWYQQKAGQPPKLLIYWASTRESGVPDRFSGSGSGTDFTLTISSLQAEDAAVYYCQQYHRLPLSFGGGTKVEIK

Changes read parent residue, position, new residue, counted from the first residue of the VL shown.
Scale: log10 of Kd in nM, estimated from mating counts; low values are strong binders.
Averages over replicates are reported, and they cover detected replicates only.
A pair that was not seen in any replicate is written "nd"; this usually means weak binding, but a binder can also be missed.
Empty control strains, which show no peptide, gave a signal in 18% of pairings with library AAYL50; the median was 4.19 and 95% of these signals were weaker than 2.99. No background was subtracted.

{"changes": "L30Q+E32F+Q95E", "mean, log10 nM": "2.89", "replicates with signal": "3 of 3"}
{"changes": "Q27Y+V29E+S38K", "mean, log10 nM": "1.54", "replicates with signal": "3 of 3"}
{"changes": "Y31N+S62G+Y97W", "mean, log10 nM": "2.26", "replicates with signal": "3 of 3"}
{"changes": "S28W+W56C", "mean, log10 nM": "nd", "replicates with signal": "0 of 3"}
{"changes": "K24H+R34E+S62A", "mean, log10 nM": "1.36", "replicates with signal": "3 of 3"}
{"changes": "V29A+W56Q+R60H", "mean, log10 nM": "4.44", "replicates with signal": "1 of 3"}
{"changes": "Y31F+V39C+L102N", "mean, log10 nM": "nd", "replicates with signal": "0 of 3"}
{"changes": "S38Q+T59V+Q95R", "mean, log10 nM": "3.83", "replicates with signal": "3 of 3"}
{"changes": "N37F+S62M+L102W", "mean, log10 nM": "nd", "replicates with signal": "0 of 3"}
{"changes": "K36V+S38F+L102Q", "mean, log10 nM": "nd", "replicates with signal": "0 of 3"}
{"changes": "V29K+A57P+Q96D", "mean, log10 nM": "4.27", "replicates with signal": "1 of 3"}
{"changes": "R34E+R60F+R99S", "mean, log10 nM": "3.06", "replicates with signal": "1 of 3"}
{"changes": "V29N+L30I+S33C", "mean, log10 nM": "3.81", "replicates with signal": "1 of 3"}
{"changes": "Q27S+L102F+S103A", "mean, log10 nM": "0.88", "replicates with signal": "3 of 3"}
{"changes": "K24E+E32W+N37M", "mean, log10 nM": "4.27", "replicates with signal": "3 of 3"}
{"changes": "K24D+V29Q+L100R", "mean, log10 nM": "1.63", "replicates with signal": "3 of 3"}
{"changes": "Q27I+L30Y+S62G", "mean, log10 nM": "1.62", "replicates with signal": "3 of 3"}
{"changes": "N37T+R99P", "mean, log10 nM": "nd", "replicates with signal": "0 of 3"}
{"changes": "R60K+L102W", "mean, log10 nM": "nd", "replicates with signal": "0 of 3"}
{"changes": "S28P+R34T+S38F", "mean, log10 nM": "2.64", "replicates with signal": "3 of 3"}
{"changes": "A40G+W56I+T59W", "mean, log10 nM": "5.92", "replicates with signal": "1 of 3"}
{"changes": "Y97R+H98L+R99W", "mean, log10 nM": "3.51", "replicates with signal": "2 of 3"}
{"changes": "S62M+Y97F+L102M", "mean, log10 nM": "2.71", "replicates with signal": "1 of 3"}
{"changes": "S58R+Y97G", "mean, log10 nM": "2.28", "replicates with signal": "3 of 3"}
{"changes": "L30Q+V39F+R99F", "mean, log10 nM": "nd", "replicates with signal": "0 of 3"}
{"changes": "R34Q+R60F+Q95G", "mean, log10 nM": "5.11", "replicates with signal": "1 of 3"}
{"changes": "V39C+T59P+Q95W", "mean, log10 nM": "nd", "replicates with signal": "0 of 3"}
{"changes": "K24N+T59H", "mean, log10 nM": "1.79", "replicates with signal": "3 of 3"}
{"changes": "S26L+S58D+S103A", "mean, log10 nM": "1.90", "replicates with signal": "3 of 3"}
{"changes": "S33H+W56N+Y97H", "mean, log10 nM": "4.37", "replicates with signal": "1 of 3"}
{"changes": "Q96P+L102C+S103N", "mean, log10 nM": "nd", "replicates with signal": "0 of 3"}

A selection of 2 entries from above:

| changes | mean, log10 nM | replicates with signal |
|---|---|---|
| V39C+T59P+Q95W | nd | 0 of 3 |
| R34E+R60F+R99S | 3.06 | 1 of 3 |